From ChEMBL document CHEMBL1208782, “Synthesis and pharmacological validation of a novel series of non-steroidal FXR agonists” (Bioorg Med Chem Lett, 2010) come the findings set out here.

The target in assay [1] is T1, Bile acid receptor (Homo sapiens) (UniProt Q96RI1).
T1 sequence (whole entry): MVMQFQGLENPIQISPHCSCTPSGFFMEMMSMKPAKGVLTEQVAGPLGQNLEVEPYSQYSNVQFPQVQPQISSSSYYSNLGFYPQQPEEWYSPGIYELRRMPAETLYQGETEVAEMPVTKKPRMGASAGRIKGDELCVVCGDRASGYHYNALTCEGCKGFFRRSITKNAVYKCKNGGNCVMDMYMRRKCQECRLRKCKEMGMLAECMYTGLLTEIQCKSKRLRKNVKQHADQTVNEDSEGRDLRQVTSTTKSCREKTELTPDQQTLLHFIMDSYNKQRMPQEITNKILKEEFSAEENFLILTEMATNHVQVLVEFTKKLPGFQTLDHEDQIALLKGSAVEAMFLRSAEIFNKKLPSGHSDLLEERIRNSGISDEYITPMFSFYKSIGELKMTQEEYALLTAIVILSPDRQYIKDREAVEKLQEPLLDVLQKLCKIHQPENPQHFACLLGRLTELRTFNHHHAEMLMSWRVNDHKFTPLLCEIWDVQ
The assay can be described thus: Agonist activity at human GST-fused FXR LBD assessed as cofactor peptide interaction with receptor ligand binding domain by FRET assay relative to GW-4064.

In assay [2] the target is T1, Bile acid receptor (Homo sapiens). As to the kind of experiment: Agonist activity at human […] FXR LBD expressed in HEK293 cells coexpressing GAL4-DNA bindig domain and pFRluc by mammalian one-hybrid assay relative to GW-4064. The assay is classed as functional, cell-based.
The target is the same in assay [3]. As to the kind of experiment: Agonist activity at human full length FXR transfected in HEK293 cells coexpressing pTRexDest/pGL2promotor assessed as luciferase activity by direct reporter cellular assay relative to GW-4064. The assay is classed as functional, cell-based.

Calls of active or inactive are those of the source. The rule behind the calls is not given here.

On to `Cc1cc(C(F)(F)F)cc(OCc2c(-c3c(Cl)cccc3Cl)noc2C(C)C)n1`, for which the Efficacy in assay [1] amounted to 98%. The Efficacy result in assay [2] and in assay [3] was “inactive” in each case.
